Ab-14 light chain CDR variants: yeast mating affinities

All variants were tested on one target, the spike HR2 peptide PDVDLGDISGINAS (SARS-CoV-2).

Each scFv is VH, a (GGGGS)3 linker, VL, as in the parent Ab-14, and differs from it in the CDRs of the light chain only.
VH: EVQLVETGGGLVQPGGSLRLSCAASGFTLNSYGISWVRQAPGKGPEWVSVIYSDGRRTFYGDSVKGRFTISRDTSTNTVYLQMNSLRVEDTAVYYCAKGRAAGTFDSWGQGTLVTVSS
VL: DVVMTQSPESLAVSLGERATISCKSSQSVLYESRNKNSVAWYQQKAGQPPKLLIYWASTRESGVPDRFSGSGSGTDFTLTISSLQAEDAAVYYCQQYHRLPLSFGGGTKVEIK

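The variants were designed computationally from a first round of random CDR variants and then made and measured. Several design methods are mixed in this list. AlphaSeq pools MATa yeast showing the antibodies with MATalpha yeast showing the peptide. Mating (16 h, 30 °C) was followed by selection of diploids and sequencing of their barcodes. A regression on co-assayed BCL2-family reference pairs converts the normalised counts of each replicate to an apparent Kd. Mating was done six times.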

Variants are written as CDR1, CDR2 and CDR3 of the light chain (limits as in the source). Parent: KSSQSVLYESRNKNSVA, WASTRES, QQYHRLPLS. This list holds designs with more than six substitutions. Numbers give log10(Kd / nM), so 0 is 1 nM and 3 is 1 µM. Smaller is tighter. A mean of the replicates is given; it leaves out those without a signal. A pair that was not seen in any replicate is written "nd"; this usually means weak binding, but a binder can also be missed. Entries are sorted by rising average, undetected variants last. The parent sequence was in this pool as ten entries: three were never detected, three once, and four in most replicates, with averages from 0.34 to 2.37. The range of this assay differs from that of the first round, and the authors advise against merging the two. The authors averaged sequences with at least three values out of six and counted those with two or fewer as poor binders. Three control strains display no target. For all light chain designs, 4% of the pairings with them gave a signal, with a median of 2.64 and one signal in twenty below 1.59, so weak values seen in few replicates may be background. Also given: how often the same scFv was detected with the empty control strains.

For TLTQVPGMESHNKNSVA, DLSTRGS, QQYHRLPLS, the assay gave -0.29 (6 of 6 replicates; controls 1 of 18).
For KLQQSQEYESRNKNSVA, DASQRLV, QAYHRLPLS, the assay gave -0.17 (6 of 6 replicates; controls 1 of 18).
For KLVQHHDYESRNKNNVA, QASQREQ, QQYHRLPLS, the assay gave -0.09 (6 of 6 replicates; controls 0 of 18).
For KVQQSVPYEDRNKNSVA, HASTRSS, QDYHRLPLS, the assay gave -0.08 (6 of 6 replicates; controls 1 of 18).
For KLSSSWLMESRNMNSVA, QASQRER, QQYHRLPLS, the assay gave -0.02 (6 of 6 replicates; controls 1 of 18).
For KYEMQELQEQRNKNSVA, NASTRES, QQYHRLPLS, the assay gave -0.01 (6 of 6 replicates; controls 0 of 18).
For NMQMQQDRMQDAKQNIA, GVDMRET, QQYFRLPFL, the assay gave 0.03 (6 of 6 replicates; controls 1 of 18).
For KWEYSVLGESRNKNAVA, QASQREQ, QQYHRLPLS, the assay gave 0.08 (6 of 6 replicates; controls 1 of 18).
For KINGYTLQPNMDHNNVA, HGTMKEA, QQYARIPLM, the assay gave 0.25 (6 of 6 replicates; controls 2 of 18).
For HIDQQTSYDNGRERAIA, DVTIRDW, QQYARLPLL, the assay gave 0.40 (6 of 6 replicates; controls 0 of 18).
For KISQEDPMESRNKNSVA, HASLRES, QQYHRLPLS, the assay gave 0.45 (6 of 6 replicates; controls 0 of 18).
For HLKQVLNGVNKKSNSVA, HMNTREE, QQYDRLPLI, the assay gave 0.53 (6 of 6 replicates; controls 0 of 18).
For KLVMSWGYESRNKNNVA, HASQRCS, QQYHRLPLS, the assay gave 0.54 (6 of 6 replicates; controls 0 of 18).
For HISPSFMVESKLKNSVA, QTETRVE, QQYDRLPLS, the assay gave 0.64 (6 of 6 replicates; controls 0 of 18).
For QIYQAMHTLSQVKDNVA, DVNERGS, QQYFRLPLS, the assay gave 0.65 (6 of 6 replicates; controls 3 of 18).
For TLMFAGEQEDSENKAIA, DAIIKGV, QQYNRLPLT, the assay gave 0.68 (6 of 6 replicates; controls 1 of 18).
For KLKELFNMWARAQGNVA, DATERCT, QQYSRLPIT, the assay gave 0.77 (5 of 6 replicates; controls 0 of 18).
For QLEVFPLQAGSTMQAIA, DASHRTP, QQYSRLPLV, the assay gave 0.84 (6 of 6 replicates; controls 1 of 18).
For MVTQMAMSGMTNKRNVA, NAETRED, QQYHRLPLI, the assay gave 0.98 (6 of 6 replicates; controls 3 of 18).
For KLDYQADQYGVQWNNVA, HADIRAP, QQYFKLPLN, the assay gave 1.03 (6 of 6 replicates; controls 0 of 18).
For KVDISPTVQGMHKSGVA, EHDMRVG, QQYFRLPLA, the assay gave 1.18 (5 of 6 replicates; controls 0 of 18).
For KISQLFNVGTKNTNSLA, EMNTRGM, QDYHRLPLS, the assay gave 1.20 (6 of 6 replicates; controls 1 of 18).
For KLTWSQYNWTSNYQAVA, EQNMRAT, QSYYRLPFS, the assay gave 1.72 (6 of 6 replicates; controls 2 of 18).
For ALSHPSDSWQEHQNSIA, DDNLSLT, QQYHQLPLS, the assay gave 1.75 (6 of 6 replicates; controls 0 of 18).
For KIDENTFHGANRQYNIA, ESRTVGA, QQYFRLPII, the assay gave 1.77 (5 of 6 replicates; controls 0 of 18).
For KLDLYNGEMDKWGDNIA, EASTAGM, QHYWRLPLS, the assay gave 1.91 (1 of 6 replicates; controls 0 of 18).
For KISDMMQTDMGRMSAVA, DDDVAND, QQYARLPLA, the assay gave 1.96 (6 of 6 replicates; controls 2 of 18).
For KVSEFMRGLMQRKDSIA, DNVTRGN, QQYDRLPLS, the assay gave 2.07 (3 of 6 replicates; controls 1 of 18).
For HLNKQAWDFNQTWNAVA, AHSMRAT, QQYYRLPLT, the assay gave 2.10 (4 of 6 replicates; controls 0 of 18).
For IVSQLMLWGMKAKNSIA, EAVTRLN, QQYDRLPLI, the assay gave 2.34 (2 of 6 replicates; controls 2 of 18).
For HMSMLTLQGMRMRNSVA, QMTTRVN, QQYDRLPLT, the assay gave nd (0 of 6 replicates; controls 1 of 18).

The first 5 entries again:

For TLTQVPGMESHNKNSVA, DLSTRGS, QQYHRLPLS, the assay gave -0.29 (6 of 6 replicates; controls 1 of 18).
For KLQQSQEYESRNKNSVA, DASQRLV, QAYHRLPLS, the assay gave -0.17 (6 of 6 replicates; controls 1 of 18).
For KLVQHHDYESRNKNNVA, QASQREQ, QQYHRLPLS, the assay gave -0.09 (6 of 6 replicates; controls 0 of 18).
For KVQQSVPYEDRNKNSVA, HASTRSS, QDYHRLPLS, the assay gave -0.08 (6 of 6 replicates; controls 1 of 18).
For KLSSSWLMESRNMNSVA, QASQRER, QQYHRLPLS, the assay gave -0.02 (6 of 6 replicates; controls 1 of 18).

The measurements come from Li et al. 2023 (doi:10.1038/s41467-023-39022-2) through the FLAb antibody collection.